Laboratory results published in patent US9603836B2, “Pyrrolidine-2, 5-dione derivatives, pharmaceutical compositions and methods for use as IDO1 inhibitors” (ITEOS THERAPEUTICS, priority 2014, dated 2017).
pEC50: −log10 of the molar value.

System: T-cell proliferation
Assay: IDO1-dependent T cell proliferation: SKOV-3 PBMC co-culture
Assay type: cell-based
Settings: Homo sapiens; restoration of T cell proliferation, Thymidine incorporation; average of three independent experiments
Method: The compounds of the present invention restore T-cell proliferation in a SKOV-3 PBMC co-culture assay.
The assay was performed in 96-well flat bottom plates seeded with the human ovarian adenocarcinoma SKOV-3 cell line [SKOV-3; SKOV3] (ATCC® HTB-77™)] and co-cultured with human peripheral blood mononuclear cells (PBMC) stimulated with CD3/CD28 beads and rhIL-2.
To adhere, irradiated SKOV-3 cells (concentration of 150×10^3 cells/well) were incubated overnight at 37° C. at 5% CO2 in Iscove's Modified Dulbecco's Medium (IMDM) (Lonza) supplemented with 50% FBS, 2% penicillin/streptomycin and 2 mM Ultraglutamin, in a final volume of 150 μL. Isolated PBMCs (stimulated with CD3/CD28 beads and rhIL-2 (30 U/mL)) were added in a ratio of 1:1. After 24 h of co-culture ^3H-Thymidine (1 μCurie/10 uL) was added to assess proliferation (TopCount counter, Perkin Elmer) after overnight incubation in the presence of 50% serum.
To determine the effect of IDO1 inhibition on restoration of T cell proliferation, the compounds of the present invention were co-incubated at different concentrations.

pEC50: 7.13
Compound: O=C1C[C@H](c2c[nH]c3ccc(F)cc23)C(=O)N1 [Compound 2, (−)-(R)-3-(5-fluoro-1H-indol-3-yl)pyrrolidine-2,5-dione]
